The conditions of this data set: cocrystal compared with crystals of fluoxetine HCl.

In the case of fluoxetine HCl:succinic acid, the dissolution rate entry was “faster dissolution rate”.

The record behind these values is US8920559B2, “Screening for solid forms by ultrasound crystallization and cocrystallization using ultrasound” (Aptuit (West Lafayette), LLC, priority 2004, dated 2014).
